# Patent US10524471B2, “Compositions and methods for increasing salt tolerance in plants” (King Abdullah University of Science and Technology, priority 2016, dated 2020)
# Tested on: Arabidopsis seedlings
# Test: Arabidopsis salt stress tolerance assay (½ MS + 100 mM NaCl)
# Type: in vivo, Arabidopsis thaliana
# Conditions: SA187-inoculated plants cultivated with 3 μM DNPH
structure (smiles),measurement,value
NNc1ccc([N+](=O)[O-])cc1[N+](=O)[O-],SA187-induced salt tolerance (beneficial index),14%
